Entries after “also recorded” stand apart in the source; their conditions may differ.
Legend:
[1] = test system: ErbB2-overexpressing primary breast carcinomas; assay: Clinical response of metastatic breast cancer patients by PTEN / ErbB2 status; format: in vivo, human; details: PTEN IRS ranges 0-3, 4-7, 8-12; Cochran-Armitage test, P<0.01
Protocol: Patient samples. […] The 47 patients were treated between 1998-2001 and the 37 patients were treated between 1990 and 1991 under IRB-approved clinical trials at The University of Texas M.D. Anderson Cancer Center. Association between clinical response to therapy and PTEN status was tested using chi-square and Fisher's tests.
PTEN Immunohistochemistry. Slides of formalin-fixed, paraffin-embedded tissue sections (4 μm) were incubated with primary antibody (1:500) against PTEN (Podsypanina et al. 2001) (Ab-2, Lab Vision Corp.). Immunodetection was performed with LSAB2 kit (DAKO, Carpinteria, Calif.), color development with 3-3′-diaminobenzidine, and counterstaining with hematoxylin. PTEN expression level was scored semiquantitatively based on staining intensity and distribution using the immunoreactive score (IRS) as described (Chui et al., 1996; Fredrichs et al., 1993) and as following: IRS=SI (staining intensity)×PP (percentage of positive cells). SI was determined as 0=negative; 1=weak; 2=moderate; and 3=strong. PP was defined as 0, <1%; 1, 1%-10%; 2, 11%-50%; 3, 51%-80%; and 4, >80% positive cells. […]
ErbB2 status. ErbB2 gene amplification in patients' samples was determined by fluorescence in situ hybridization (FISH) using PathVysion FISH assay (Vysis, Inc., Downers Grove, Ill.). ErbB2 protein overexpression was determined by IHC as previously described (Jacobs et al., 1999).

PTEN [2] = assay: Separation of membrane-bound and cytosolic proteins, PTEN Western blot; format: cell-based, human; details: BT474 cells, trastuzumab 20 min
Protocol: (§1) Separation of membrane-bound and cytosolic proteins. Cells were lysed in saponin buffer (0.01% saponin, 10 mM Tris-HCL at pH 7.4, 140 mM NaCl, 5 mM EDTA, 2 mM EGTA, 0.2 mM sodium vanadate, 50 mM NaF, 25 mM β-glycerophosphate) containing protease inhibitor cocktail (Sigma). Proteins were extracted for 20 min on ice, and samples centrifuged at 14,000 g for 30 min at 4° C. The saponin soluble pool (cytosolic pool) was collected (Palka and Green, 1997). The remaining pellet was rinsed with saponin buffer once, extracted in IP buffer, and centrifuged to remove insoluble materials. The supernatant was collected (membrane-bound pool).

PTEN [3] = assay: PTEN phosphatase assay on PTEN immunoprecipitated from treated cells; format: cell-based, human; details: SKBr3 cells
Protocol: PTEN phosphatase assay. PTEN phosphatase activity was measured as described with minor modifications (Georgescu et al., 1999). Each assay was performed in 50 μl buffer containing 100 mM Tris-HCl (pH 8.0), 10 mM DTT, and 100 μM water-soluble diC8-PIP3 (Echelon, Salt Lake City, Utah). Reactions contained PTEN immunoprecipitated from cell lysates on protein G-agarose beads. […] After immunoprecipitation, the beads were washed once in lysis buffer; five times in low-stringency buffer containing 20 mM Hepes (pH 7.7), 50 mM NaCl, 0.1 mM EDTA, and 2.5 mM MgCl2; and once in phosphatase assay buffer lacking PIP3. Reactions were incubated for 40 min at 37° C. and transferred to a 96-well plate. Release of phosphate from substrate was measured using Biomol Green Reagent (Biomol Research Laboratories, Inc., Plymouth Meeting, Pa.).

PTEN [4] = assay: PTEN membrane translocation in 435.eB and eB/SrcCA cells; format: cell-based
Protocol: as §1

BT474 cells [5] = assay: BrdU incorporation assay in BT474 cells; format: cell-based, human; details: trastuzumab 2 mg/ml, 48 h
Excerpt: BrdU incorporation assay. S-phase cells were detected using 5-bromo-2′-deoxyuridine (BrdUrd) Labeling and Detection Kit I (Roche Molecular Biochemicals, Indianapolis, Ind.).

Akt = Akt phosphorylation by immunoblotting in trastuzumab-treated cells; format: cell-based, human; details: for Akt dephosphorylation by trastuzumab: trastuzumab 2 μg/ml
Protocol: (§2) Preparation of Cell Lysates, Immunoprecipitation, and Western Blot Analysis. Cells at 70%-80% confluence were treated with each reagent indicated in the individual experiments. For PTEN phosphotyrosine immunoblots, ErbB2 IP, and Src IP, cells were treated with 30 mM pervanadate for 10 min as described (Lu et al., 2003). Unless noted, cells were washed with PBS and lysed in IP buffer with protease inhibitor cocktail (Sigma Chemical Co., St. Louis, Mo.). Immunoprecipitation and Western blot analysis were performed (Yu et al., 1998).

BT474 tumor xenografts = assay: BT474 mammary fat pad xenograft tumor growth in nude mice; format: in vivo; details: trastuzumab 10 mg/kg twice per week
Protocol: Animal experiment. Female athymic nude mice (Harlan Sprague Dawley, Indianapolis, Ind.) were implanted with 0.72-mg 60-day-release 17β-estradiol pellets (Innovative Research, Sarasota, Fla.) and irradiated at 3.5 Gy prior to inoculation. BT474 cells (8×10^6) in 200 μl of PBS and Matrigel (BD Biosciences, Bedford, Mass.) mixture (1:1 ratio) were injected subcutaneously into a mouse mammary fat pad (mfp). When the mfp tumor volume reached >150 mm^3, the tumor was treated with PTEN antisense or control mismatched oligonucleotides (30 μg/week) in saline. […] Tumor diameters were serially measured with calipers and tumor volumes calculated: volume=width^2×length/2. Each treatment group contained 8-12 mice. Unpaired Student's t-test was used to assess statistical significance.

PTEN [6] = assay: PTEN tyrosine phosphorylation (PTEN IP, phosphotyrosine immunoblot); format: cell-based, human; details: BT474 cells, trastuzumab 2 μg/ml
Protocol: as §2

[7] = test system: ErbB2-overexpressing metastatic breast cancer; details: cited from earlier work
Src tyrosine kinase = assay: Src kinase assay and Src-Y416 phosphorylation after trastuzumab; format: cell-based; details: trastuzumab-treated vs untreated cells
Protocol: Src kinase assay. Equal amounts of cell lysates were immunoprecipitated with anti-Src antibody (0P07, Oncogene Tesearch Products, Boston, Mass.). The precipitates were washed and incubated with 250 μg/ml enolase, 2 μCi of [γ^32P]ATP, and 3 μl of 100 mM ATP in 40 μl of kinase buffer. After 30 min at 37° C., the samples were boiled in 15 μl of 6×SDS sample buffer for 5 min and then subjected to SDS-PAGE. The ^32P-labeled enolase was visualized by autoradiography.
as §2

SKBr3 cells = assay: Cell proliferation of SKBr3 cells (MTS assay); format: cell-based, human; details: PTEN AS-treated vs MIS control-transfected SKBr3 cells; 2 μg/ml, 3 and 5 days
Protocol: (§3) Cell viability assay. Cells were seeded at 1-5×10^3 cells/well in 96-well plates after oligonucleotide transfection. Viable cells were determined by CellTiter 96 AQueous Non-Radioactive Cell Proliferation Assay (Promega, Madison, Wis.).

BT474 cells [8] = assay: Cell viability assay of BT474 cells; format: cell-based, human; details: trastuzumab 2 μg/ml, 3 days
Protocol: as §3

In the case of trastuzumab, the “probability of response / response rate vs PTEN IRS” value [1] is reported as “decreases as PTEN expression (IRS score) decreases”, the “PTEN protein in the membrane-bound pool” value (PTEN [2]) is reported as “noticeably enriched” and the “PTEN protein in the membrane-bound pool” value (PTEN [2]; listed as Trastuzumab) is reported as “increased membrane bound PTEN”. For the same substance, the PTEN phosphatase activity (PTEN [3]; 20 min trastuzumab treatment, vs untreated cells) was “dramatically increased”, the PTEN phosphatase activity (PTEN [3]; 60 min after treatment) was “continued to increase” and the PTEN phosphatase activities (PTEN [3]; trastuzumab 2 μg/ml, 20 or 60 min) was “Increased PTEN phosphatase activities”. The PTEN membrane translocation (PTEN [4]; 435.eB cells) was “effectively increased the PTEN membrane translocation”, the PTEN membrane translocation (PTEN [4]; eB/SrcCA cells expressing constitutively activated Src) was “less effective” and the BrdU incorporation (BT474 cells [5]; PTEN normal expressing (MIS) BT474 cells) was “reduces BrdU incorporation”. The BrdU incorporation (BT474 cells [5]; PTEN-deficient (PTEN AS) BT474 cells) was “but not of PTEN-deficient (PTEN AS) BT474 cells”, the “level of phosphorylated and activated Akt” value (Akt; 1 h trastuzumab treatment, BT474 and SKBr3 cells, Akt protein level unchanged) was “quickly reduced the level of phosphorylated and activated Akt; also recorded: Rapid Akt dephosphorylation” and the “Akt dephosphorylation by trastuzumab” value (Akt; MIS control-treated SKBr3 cells) was “rapid Akt dephosphorylation”. The “Akt dephosphorylation by trastuzumab” value (Akt; PTEN AS-treated SKBr3 cells) was “attenuated”, the tumor growth inhibition (BT474 tumor xenografts; MIS control-treated tumors expressing normal PTEN) was “only inhibited MIS control-treated tumors expressing normal PTEN” and the tumor growth inhibition (BT474 tumor xenografts; PTEN AS-treated tumors with reduced PTEN) was “more resistant to trastuzumab than PTEN normal BT474 xenografts”. The tumor growth inhibition (BT474 tumor xenografts; PTEN AS-treated tumors with reduced PTEN, listed as Trastuzumab) was “but not PTEN AS-treated tumors with reduced PTEN”, the PTEN tyrosine phosphorylation (PTEN [6]) was “rapidly reduced PTEN tyrosine phosphorylation; also recorded: Reduction of PTEN tyrosine phosphorylation” and the “patients responding to trastuzumab as a single agent” value ([7]; ErbB2-overexpressing metastatic breast cancer) was “less than 35%”. For the same substance, the “patients suffering from severe side effects (e.g., cardiac dysfunction)” value ([7]; trastuzumab treatment) was ~5%, the Src kinase activity (Src tyrosine kinase) was “rapidly inhibited Src kinase activity” and the “Src phosphorylation on Y416” value (Src tyrosine kinase) was “rapidly reduced Src phosphorylation on Y416”. For the same substance, the “Inhibition of cell proliferation by trastuzumab” value (SKBr3 cells) was “significantly less effective in PTEN AS-treated cells” and the “trastuzumab-mediated growth inhibition, MIS-treated vs PTEN AS-treated cells” value (BT474 cells [8]) was “more sensitive to trastuzumab-mediated growth inhibition than the PTEN AS-treated cells”.

From patent publication US10378058B2, “Diagnostic and therapeutic methods and compositions involving PTEN and breast cancer” (Board of Regents of The University of Texas System, priority 2003, dated 2019)
